Measured values: patent US9403839B2, “Pyran-spirocyclic piperidine amides as modulators of ion channels” (Vertex Pharmaceuticals Incorporated, priority 2012, dated 2016)

The chains behind the UniProt entries cited, without tags or fusion partners.
UniProt Q15858, whole entry: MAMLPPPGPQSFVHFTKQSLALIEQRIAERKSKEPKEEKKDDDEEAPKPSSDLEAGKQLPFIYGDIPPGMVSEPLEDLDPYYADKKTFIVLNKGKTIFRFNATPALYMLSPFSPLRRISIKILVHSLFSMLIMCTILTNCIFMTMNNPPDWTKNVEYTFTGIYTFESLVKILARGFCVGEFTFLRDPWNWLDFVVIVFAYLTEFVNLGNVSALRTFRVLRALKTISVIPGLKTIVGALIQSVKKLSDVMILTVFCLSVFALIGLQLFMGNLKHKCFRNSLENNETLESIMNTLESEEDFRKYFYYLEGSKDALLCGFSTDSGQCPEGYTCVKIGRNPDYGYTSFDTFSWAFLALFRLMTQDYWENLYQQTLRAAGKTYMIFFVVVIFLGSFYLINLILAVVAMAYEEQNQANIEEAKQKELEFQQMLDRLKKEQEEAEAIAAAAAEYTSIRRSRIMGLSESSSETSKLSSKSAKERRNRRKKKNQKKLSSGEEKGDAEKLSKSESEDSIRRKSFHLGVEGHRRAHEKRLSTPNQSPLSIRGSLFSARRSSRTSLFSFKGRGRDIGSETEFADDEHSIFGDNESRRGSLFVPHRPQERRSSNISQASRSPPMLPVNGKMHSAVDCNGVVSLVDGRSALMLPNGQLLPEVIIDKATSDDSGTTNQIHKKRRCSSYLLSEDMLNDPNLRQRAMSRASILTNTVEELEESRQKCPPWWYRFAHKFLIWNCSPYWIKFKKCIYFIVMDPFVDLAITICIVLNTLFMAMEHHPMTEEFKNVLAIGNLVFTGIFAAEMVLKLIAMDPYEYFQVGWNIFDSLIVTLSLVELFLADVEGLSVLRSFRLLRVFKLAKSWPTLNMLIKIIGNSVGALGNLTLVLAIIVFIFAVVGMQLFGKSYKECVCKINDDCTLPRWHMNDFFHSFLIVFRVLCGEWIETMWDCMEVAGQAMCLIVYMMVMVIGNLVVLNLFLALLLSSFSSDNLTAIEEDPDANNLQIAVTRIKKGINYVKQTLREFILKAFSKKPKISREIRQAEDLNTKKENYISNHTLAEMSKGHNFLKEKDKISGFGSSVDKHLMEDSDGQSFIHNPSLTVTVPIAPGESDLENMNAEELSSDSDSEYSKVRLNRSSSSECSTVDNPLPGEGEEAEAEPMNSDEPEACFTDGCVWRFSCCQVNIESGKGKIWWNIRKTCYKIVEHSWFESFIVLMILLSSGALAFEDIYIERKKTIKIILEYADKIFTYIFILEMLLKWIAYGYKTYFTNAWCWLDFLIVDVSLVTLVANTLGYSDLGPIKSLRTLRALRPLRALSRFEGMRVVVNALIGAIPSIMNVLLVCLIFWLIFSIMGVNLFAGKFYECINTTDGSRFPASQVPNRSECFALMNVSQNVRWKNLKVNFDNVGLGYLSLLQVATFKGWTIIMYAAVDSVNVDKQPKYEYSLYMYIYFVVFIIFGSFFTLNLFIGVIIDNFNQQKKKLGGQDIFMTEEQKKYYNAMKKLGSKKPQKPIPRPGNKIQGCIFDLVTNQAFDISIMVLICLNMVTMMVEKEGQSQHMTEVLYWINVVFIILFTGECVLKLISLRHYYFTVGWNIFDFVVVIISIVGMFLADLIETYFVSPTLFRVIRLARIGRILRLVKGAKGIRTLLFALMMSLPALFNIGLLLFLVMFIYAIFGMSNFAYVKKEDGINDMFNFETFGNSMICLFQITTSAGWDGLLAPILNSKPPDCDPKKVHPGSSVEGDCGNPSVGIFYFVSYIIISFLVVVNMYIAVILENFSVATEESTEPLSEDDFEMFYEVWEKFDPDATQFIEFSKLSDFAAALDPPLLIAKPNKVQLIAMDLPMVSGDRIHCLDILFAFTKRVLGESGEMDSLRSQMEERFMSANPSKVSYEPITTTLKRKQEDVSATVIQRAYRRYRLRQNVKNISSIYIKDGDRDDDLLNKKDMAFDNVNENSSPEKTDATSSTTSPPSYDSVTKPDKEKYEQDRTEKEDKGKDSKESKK

What follows are compounds tested against human NaV subtype, like NaV 1.7 (Homo sapiens, UniProt Q15858) (assay: E-VIPR optical membrane potential assay with electrical stimulation). Details: read-out: IC50 Binned Activity Data; one or more sodium channels; assay and NaV subtype not specified for Table 3.
Description: Assays for Detecting and Measuring NaV Inhibition Properties of Compound E-VIPR Optical Membrane Potential Assay Method with Electrical Stimulation
Sodium channels are voltage-dependent proteins that can be activated by inducing membrane voltage changes by applying electric fields. The electrical stimulation instrument and methods of use are described in Ion Channel Assay Methods PCT/US01/21652, herein incorporated by reference and are referred to as E-VIPR. The instrument comprises a microtiter plate handler, an optical system for exciting the coumarin dye while simultaneously recording the coumarin and oxonol emissions, a waveform generator, a current- or voltage-controlled amplifier, and a device for inserting electrodes in well. Under integrated computer control, this instrument passes user-programmed electrical stimulus protocols to cells within the wells of the microtiter plate.
24 hours before the assay on E-VIPR, HEK cells expressing human NaV subtype, like NaV 1.7, are seeded in 384-well poly-lysine coated plates at 15,000-20,000 cells per well. Other subtypes are performed in an analogous mode in a cell line expressing the NaV of interest. HEK cells are grown in media (exact composition is specific to each cell type and NaV subtype) supplemented with 10% FBS (Fetal Bovine Serum, qualified; GibcoBRL #16140-071) and 1% Pen-Strep (Penicillin-Streptomycin; GibcoBRL #15140-122). Cells are grown in vented cap flasks, in 90% humidity and 10% CO2, to 100% confluence. They are usually split by trypsinization 1:10 or 1:20, depending on scheduling needs, and grown for 2-3 days before the next split.
100 mg/mL Pluronic F-127 (Sigma #P2443), in dry DMSO
Compound Plates: 384-well round bottom plate, e.g. Corning 384-well Polypropylene Round Bottom #3656
Cell Plates: 384-well tissue culture treated plate, e.g. Greiner #781091-1B
Bath1 buffer. Glucose 10 mM (1.8 g/L), Magnesium Chloride (Anhydrous), 1 mM (0.095 g/L), Calcium Chloride, 2 mM (0.222 g/L), HEPES 10 mM (2.38 g/L), Potassium Chloride, 4.5 mM (0.335 g/L), Sodium Chloride 160 mM (9.35 g/L).
Hexyl Dye Solution: Bath1 Buffer+0.5% β-cyclodextrin (make this prior to use, Sigma #C4767), 8 μM CC2-DMPE+2.5 μM DiSBAC6(3). To make the solution Add volume of 10% Pluronic F127 stock equal to volumes of CC2-DMPE+DiSBAC6(3). The order of preparation is first mix Pluronic and CC2-DMPE, then add DiSBAC6(3) while vortexing, then add Bath1+β-Cyclodextrin.
1) Pre-spot compounds (in neat DMSO) into compound plates. Vehicle control (neat DMSO), the positive control (20 mM DMSO stock tetracaine, 125 μM final in assay) and test compounds are added to each well at 160× desired final concentration in neat DMSO. Final compound plate volume will be 80 μL (80-fold intermediate dilution from 1 μL DMSO spot; 160-fold final dilution after transfer to cell plate). Final DMSO concentration for all wells in assay is 0.625%.
2) Prepare Hexyl Dye Solution.
3) Prepare cell plates. On the day of the assay, medium is aspirated and cells are washed three times with 100 μL of Bath1 Solution, maintaining 25 μL residual volume in each well.
4) Dispense 25 μL per well of Hexyl Dye Solution into cell plates. Incubate for 20-35 minutes at room temp or ambient conditions.
5) Dispense 80 μL per well of Bath1 into compound plates. Acid Yellow-17 (1 mM) is added and Potassium Chloride can be altered from 4.5 to 20 mM depending on the NaV subtype and assay sensitivity.
6) Wash cell plates three times with 100 μL per well of Bath1, leaving 25 of residual volume. Then transfer 25 uL per well from Compound Plates to Cell Plates. Incubate for 20-35 minutes at room temp/ambient condition
7) Read Plate on E-VIPR. Use the current-controlled amplifier to deliver stimulation wave pulses for typically 9 seconds and a scan rate of 400 Hz. A pre-stimulus recording is performed for 0.5 seconds to obtain the un-stimulated intensities baseline. […]
`CCOC1CC(C2CC2)OC2(CCN(C(=O)c3ccc(OC(C)C)c(C)c3)CC2)C1` (stereo not drawn) gave an IC50 of 2000 to 5000 nM.
Work on `CCOC1CC(c2ccccc2)OC2(CCN(C(=O)c3ccc(N4CCCC4)cn3)CC2)C1` (stereo not drawn) yielded an IC50 of less than 2000 nM.
`CCOC1CC(c2cccnc2)OC2(CCN(C(=O)c3ccc(OC(C)C)c(F)c3)CC2)C1` (stereo not drawn) showed an IC50 of 2000 to 5000 nM.
`CCOc1ccc(C(=O)N2CCC3(CC2)CC(OCC)CC(c2ccc(F)cc2)O3)cc1F` (stereo not drawn) gave an IC50 of 2000 to 5000 nM.
In the case of `CCOC1CC(c2ccccc2)OC2(CCN(C(=O)c3cc(C)c(OC)c(C)c3)CC2)C1` (stereo not drawn), the IC50 is reported as less than 2000 nM.
Work on `CCOC1CC(c2ccccc2)OC2(CCN(C(=O)c3nccc4ccccc34)CC2)C1` (stereo not drawn) yielded an IC50 of 2000 to 5000 nM.
`CCOC1CC(c2ccccc2)OC2(CCN(C(=O)c3ccc(OCC(C)C)c(OC)c3)CC2)C1` (stereo not drawn) gave an IC50 of less than 2000 nM.
`CCOC1CC(c2ccccc2)OC2(CCN(C(=O)c3cn(C)c4ccccc34)CC2)C1` (stereo not drawn) showed an IC50 of less than 2000 nM.
In the case of `CCOC1CC(c2ccccc2)OC2(CCN(C(=O)c3ccccc3C)CC2)C1` (stereo not drawn), the IC50 is reported as greater than 5000 nM.
Compound `CCOC1CC(c2ccccc2)OC2(CCN(C(=O)c3ccc(C(O)C(C)C)cc3)CC2)C1` (stereo not drawn) has an IC50 of less than 2000 nM.
`CCOC1CC(c2ccccc2)OC2(CCN(C(=O)c3ccc(C(F)(F)F)cc3OC)CC2)C1` (stereo not drawn) gave an IC50 of less than 2000 nM.
`CCCOC1CC(c2cncc(OC)c2)OC2(CCN(C(=O)c3ccc(OC(C)C)c(C)c3)CC2)C1` (stereo not drawn) gave an IC50 of less than 2000 nM.
Compound `CCOC1CC(c2ccccc2)OC2(CCN(C(=O)c3ccc(OCC(C)(C)O)cc3)CC2)C1` (stereo not drawn) has an IC50 of less than 2000 nM.
`CCOC1CC(c2ccccc2)OC2(CCN(C(=O)c3cccnc3NCC(C)C)CC2)C1` (stereo not drawn) gave an IC50 of less than 2000 nM.
Work on `CCOC1CC(c2ccccc2)OC2(CCN(C(=O)c3cc(OC)c4ccccc4n3)CC2)C1` (stereo not drawn) yielded an IC50 of less than 2000 nM.
In the case of `COCCOC1CC(c2cccnc2)OC2(CCN(C(=O)c3ccc(OC(C)C)c(C)c3)CC2)C1` (stereo not drawn), the IC50 is reported as 2000 to 5000 nM.
Compound `CCOC1CC(c2ccccc2)OC2(CCN(C(=O)c3cccc(OC)n3)CC2)C1` (stereo not drawn) has an IC50 of 2000 to 5000 nM.
`CCOC1CC(c2ccccn2)OC2(CCN(C(=O)c3cccc(F)c3OC)CC2)C1` (stereo not drawn) gave an IC50 greater than 5000 nM.
Work on `CCOC1CC(c2ccccc2)OC2(CCN(C(=O)c3cc(OC)c(C)c(OC)c3)CC2)C1` (stereo not drawn) yielded an IC50 greater than 5000 nM.
`CCOC1CC(c2ccccc2)OC2(CCN(C(=O)c3cc(OC)ccc3F)CC2)C1` (stereo not drawn) was tested, and the IC50 was greater than 5000 nM.
In the case of `CCOC1CC(c2ccccc2)OC2(CCN(C(=O)c3ccccc3OC)CC2)C1` (stereo not drawn), the IC50 is reported as less than 2000 nM.
With `CCOC1CC(c2ccccc2)OC2(CCN(C(=O)c3cc4ccccc4o3)CC2)C1` (stereo not drawn) the IC50 was 2000 to 5000 nM.
`CCOC1CC(c2ccccc2)OC2(CCN(C(=O)c3ccc(C(C)(O)CC)cc3)CC2)C1` (stereo not drawn) gave an IC50 of less than 2000 nM.
Compound `CCOC1CC(c2ccccc2)OC2(CCN(C(=O)c3ccc(N4CCOCC4)nc3)CC2)C1` (stereo not drawn) has an IC50 greater than 5000 nM.
`COC1CC(c2cccnc2)OC2(CCN(C(=O)c3ccc(OC(C)C)c(C)c3)CC2)C1` (stereo not drawn) gave an IC50 of 2000 to 5000 nM.
With `CCOC1CC(c2ccccc2)OC2(CCN(C(=O)c3cccnc3OCC(F)(F)F)CC2)C1` (stereo not drawn) the IC50 was less than 2000 nM.
For `CCOC1CC(c2ccccc2)OC2(CCN(C(=O)c3ccc(S(=O)(=O)NC)cc3)CC2)C1` (stereo not drawn), the IC50 was 2000 to 5000 nM.
`CCOC1CC(c2ccccc2)OC2(CCN(C(=O)c3cccnc3N3CCCC3)CC2)C1` (stereo not drawn) was tested, and the IC50 was greater than 5000 nM.
For `CCOC1CC(c2ccccc2)OC2(CCN(C(=O)c3cc(F)ccc3OC)CC2)C1` (stereo not drawn), the IC50 was 2000 to 5000 nM.
`CCOC1CC(c2scnc2C)OC2(CCN(C(=O)c3ccc(OC(C)C)c(C)c3)CC2)C1` (stereo not drawn) was tested, and the IC50 was less than 2000 nM.
